In paper PMC11149620 (Journal of medicinal chemistry, 2024):

Legend:
[1] = target: Human ATAD2B BRD-containing protein (residues 953–1085) (human) (UniProt Q9ULI0); test: ITC
[2] = target: T1, Human ATAD2 BRD-containing protein (residues 966–1112) (Homo sapiens, UniProt Q6PL18); test: ITC of histone peptides with the ATAD2 BRD
T1 sequence (Q6PL18 966-1112): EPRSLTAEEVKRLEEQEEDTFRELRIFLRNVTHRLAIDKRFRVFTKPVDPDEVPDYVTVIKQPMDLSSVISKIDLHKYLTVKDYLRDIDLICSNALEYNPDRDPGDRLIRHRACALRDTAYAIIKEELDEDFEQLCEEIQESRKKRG

[3] = target: T2, human ATAD2B BRD-containing protein (residues 953–1085) (Homo sapiens, UniProt Q9ULI0); test: ITC of histone peptides with the ATAD2B BRD
T2 sequence (Q9ULI0 953-1085): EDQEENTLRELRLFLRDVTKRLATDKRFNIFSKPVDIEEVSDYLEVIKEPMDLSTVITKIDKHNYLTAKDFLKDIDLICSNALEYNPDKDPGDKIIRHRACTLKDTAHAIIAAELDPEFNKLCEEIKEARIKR

Row | Molecule | Kd [2] | Kd [3] | further results
1 | H4K5acK8ac (1–24) (peptide) |  |  | Kd [1]: 94.6 µM
2 | CC(=O)NCCCC[C@H](NC(=O)CNC(=O)CNC(=O)[C@@H](NC(=O)[C@H](CCCCNC(C)=O)NC(=O)CNC(=O)[C@H](CCCNC(=N)N)NC(=O)CNC(=O)[C@@H](N)CO)[C@@H](C)O)C(=O)N[C@@H](C)C(=O)N[C@@H](CCCNC(=N)N)C(=O)N[C@@H](C)C(=O)N[C@@H](CCCCN)C(=O)N[C@@H](C)C(=O)N[C@@H](CCCCN)C(=O)N[C@@H](CO)C(=O)N[C@@H](CCCNC(=N)N)C(N)=O [H2A.XK5acK9ac (1–17)] | 82 ± 11 µM | 66.6 ± 10.5 µM | 
3 | H4K12acK20ac (1–24) (peptide) |  |  | stoichiometry N [1]: 1.01
4 | CC(=O)NCCCC[C@H](NC(=O)CNC(=O)CNC(=O)[C@H](C)N)C(=O)N[C@@H](C)C(=O)NCC(=O)N[C@@H](CCCCN)C(=O)N[C@@H](CC(=O)O)C(=O)N[C@@H](CO)C(=O)NCC(=O)N[C@@H](CCCCN)C(=O)N[C@@H](C)C(=O)N[C@@H](CCCCN)C(=O)N[C@H](C(=O)N[C@@H](CCCCN)C(N)=O)[C@@H](C)O [H2A.ZK4ac (1–15)] |  | 79.3 ± 4.2 µM | 
5 | CC(=O)NCCCC[C@H](NC(=O)CNC(=O)CNC(=O)[C@@H](NC(=O)[C@H](CCCCN)NC(=O)CNC(=O)[C@H](CCCNC(=N)N)NC(=O)CNC(=O)[C@@H](N)CO)[C@@H](C)O)C(=O)N[C@@H](C)C(=O)N[C@@H](CCCNC(=N)N)C(=O)N[C@@H](C)C(=O)N[C@@H](CCCCN)C(=O)N[C@@H](C)C(=O)N[C@@H](CCCCN)C(=O)N[C@@H](CO)C(=O)N[C@@H](CCCNC(=N)N)C(N)=O [H2A.XK9ac (1–17)] | 51.1 ± 5.4 µM |  | 
6 | CC(=O)NCCCC[C@H](NC(=O)CNC(=O)[C@H](CCCNC(=N)N)NC(=O)CNC(=O)[C@@H](N)CO)C(=O)N[C@H](C(=O)NCC(=O)NCC(=O)N[C@@H](CCCCN)C(=O)N[C@@H](C)C(=O)N[C@@H](CCCNC(=N)N)C(=O)N[C@@H](C)C(=O)N[C@@H](CCCCN)C(=O)N[C@@H](C)C(=O)N[C@@H](CCCCN)C(=O)N[C@@H](CO)C(=O)N[C@@H](CCCNC(=N)N)C(N)=O)[C@@H](C)O [H2A.XK5ac (1–17)] | 160 ± 19.4 µM | 28.6 ± 2 µM | 
